## Measured affinities in a library of Ab-14 light chain variants

Target peptide (SARS-CoV-2 spike, HR2 region): PDVDLGDISGINAS

Each scFv is VH, three GGGGS repeats, VL, as in the parent Ab-14, and differs from it in the CDRs of the light chain only.
VH: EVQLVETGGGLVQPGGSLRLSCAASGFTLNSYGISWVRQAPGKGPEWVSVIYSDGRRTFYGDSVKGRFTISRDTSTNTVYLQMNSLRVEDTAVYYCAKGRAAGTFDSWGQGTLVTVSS
VL: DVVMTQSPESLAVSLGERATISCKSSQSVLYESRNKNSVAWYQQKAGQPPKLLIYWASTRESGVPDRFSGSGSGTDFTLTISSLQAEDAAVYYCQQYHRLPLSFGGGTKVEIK

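The parent was found by panning a naive human phage display library on the peptide. Designed CDR sequences, proposed from the first random library and measured here. Several design methods are mixed in this list. AlphaSeq pools MATa yeast showing the antibodies with MATalpha yeast showing the peptide. Mating (16 h, 30 °C) was followed by selection of diploids and sequencing of their barcodes. Read counts were normalised to the haploid input and turned into Kd by a linear fit to BCL2-family pairs of known affinity, for each replicate. The assay was run in six technical replicates.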

Positions count from residue 1 of the parent VL; S25L puts L in place of S.
Variants here have at most six changes.
Values are log10 of the apparent Kd in nM; lower means stronger binding.
"nd" means that the variant was in the library but no mating with the target was seen in that replicate; the authors take this as a sign of poor binding, and no number exists.

- S25L/V29E/W56N/E61C/S62D: 0.30, 0.06, -0.36, -0.26, 0.18, -0.12
- K24H/S25L/V29W/W56N: -0.33, -0.43, -0.26, -0.78, -0.31, -0.39
- S25V/V29Q/S33E/S38N/W56Q/T59D: 0.04, 0.02, -0.04, -0.08, 0.12, 0.04
- Y31A/L100Y: 4.27, 2.56, 2.02, nd, 2.13, nd
- V29W/S38P/A40L/W56G/T59F: nd, nd, nd, nd, nd, nd
- S25L/S26E/L30W/W56N: 0.19, 0.03, 0.28, 0.03, 0.41, 0.44
- S28D/S38G/V39L/W56D/R60C: 0.36, 0.56, 0.85, 0.63, 0.38, 0.27
- S25M/Y31W/W56D: -0.20, -0.16, -0.13, -0.45, -0.22, -0.13
- L30T/R34F: 3.16, nd, nd, 2.53, nd, 2.01
- Q27P/V29T/W56D/H98M: -0.14, -0.24, -0.41, -0.26, -0.43, -0.23
- Q27D/V29E/W56E: 0.29, 0.00, 0.10, -0.22, -0.15, 0.13
- S25F/L30W/N35T/S38A/W56N/Y97E: 0.50, 0.24, 0.47, 0.36, 0.09, 0.48
- Q27W/Y31Q/W56D: 0.16, 0.10, 0.57, -0.25, 0.18, 0.45
- K24H/S25Q/Q27D/Y31Q/W56D: 1.85, 2.29, 1.53, 1.86, 2.14, 0.51
- S25L/S26E/S38N/W56G: -0.11, -0.54, -0.69, -0.56, -0.64, -0.42
- S25Q/W56H: 1.11, 0.56, 0.20, -0.06, 0.02, 0.58
- K24H/V29R/W56S/A57C: nd, nd, nd, nd, nd, nd
- P101L: nd, nd, nd, nd, nd, nd
- S26A/Q27Y/V29E/Y31L/W56S/S62V: 0.22, -0.10, 0.64, 0.42, 0.15, 0.73
- S25L/V29S/W56N/E61C: 0.18, -0.04, 0.27, -0.06, 0.17, 0.18
- S25A/S26V/W56G/S103I: 0.98, 0.52, 0.94, 0.87, 0.70, 0.88
- S26C/E32D: nd, 0.80, 2.12, 2.31, 2.47, 1.87
- V29E/Y31P/W56D: 0.20, 0.25, 0.10, 0.01, 0.04, 0.03
- S25L/S26Y/V29W/W56N/T59Q/E61L: 0.35, 0.14, 0.04, 0.13, 0.25, 0.19
- K24E/V29S/W56Y: 1.81, 2.12, 1.45, 1.85, 1.74, 2.35
- V29M/W56H/Y97H/S103G: nd, nd, nd, nd, nd, nd
- S25V/Q27M/V29Q/K36F/W56N/S62E: 1.17, 0.84, 0.84, 1.05, 0.62, 1.05
- S25L/K36S/S38N/W56G: 0.17, 0.10, 0.35, -0.24, -0.26, -0.07
- S25L/V29M/K36D/W56Q/Q96D/S103M: 0.51, 0.23, 0.58, 0.00, 0.37, 0.51
- R34N/N37Y: 1.79, 1.13, 0.69, 1.12, 1.92, 2.00
- S25L/Q27M/S38N/W56E: -0.31, -0.26, -0.55, -0.71, -0.63, -0.63
- S25I/Y31M/R34L/W56H/E61I/S62D: 0.53, 0.39, 0.56, 0.42, 0.25, 0.50
- S25L/S26Q/L30P/W56N/Q96D: 0.56, 0.41, 0.26, 0.17, 0.22, 0.68
- S25L/S26L/W56E/S62D: -0.07, -0.02, -0.13, -0.05, -0.11, -0.07
- Q27I/V29E/R34M/W56N/A57G: -0.05, 0.03, 0.18, 0.13, -0.15, 0.45
- S25Q/W56N/A57G/S62V: 0.12, -0.07, -0.12, -0.11, -0.13, 0.06
- S25H/V29W/L30I/W56D: 0.08, 0.47, -0.39, -0.07, -0.08, 0.08
- S25L/N35M/W56G: 0.05, -0.20, -0.30, -0.32, -0.26, -0.25
- V29W/L30A/K36F/W56S: 0.63, 0.62, 0.48, 0.31, 0.57, 0.36
- W56E/A57S: 1.70, 1.82, 0.94, 2.14, 2.36, 0.96
- S25V/S26Y/Q27P/V29Y/W56Q: 0.07, -0.10, 0.41, 0.09, 0.01, 0.19
- Q27D/V29Y/W56A/Q96T/R99E: 1.18, 1.80, 2.09, 1.55, 1.34, 1.69
- S25F/Q27D/L30M: 0.55, 0.58, 0.45, 0.44, 0.52, 0.70
- L30Y/E32L/W56A: 1.29, 1.78, 1.59, 1.52, 2.11, 1.50
- S25Q/Q27N/Y31Q/W56D: -0.19, -0.28, 0.01, -0.43, -0.24, 0.12
- W56E/Y97M: nd, 1.30, 1.30, 1.72, 1.43, 2.21
- S25L/V29W/W56H: 0.04, 0.06, -0.28, -0.27, -0.21, 0.19
- S25L/W56E/T59L: -0.07, -0.24, -0.40, -0.45, -0.32, -0.29

A selection of 4 entries from above:

changes,"log10 Kd, replicates"
K24H/V29R/W56S/A57C,"nd, nd, nd, nd, nd, nd"
L30Y/E32L/W56A,"1.29, 1.78, 1.59, 1.52, 2.11, 1.50"
S25L/Q27M/S38N/W56E,"-0.31, -0.26, -0.55, -0.71, -0.63, -0.63"
S26C/E32D,"nd, 0.80, 2.12, 2.31, 2.47, 1.87"

The range of this assay differs from that of the first round, and the authors advise against merging the two.
Background: pairings of all light chain designs with three empty control strains gave a value in 4% of cases (median 2.64, 5th percentile 1.59). Values in that range, when seen in few replicates, are hard to tell from nonspecific mating.
In the paper, a design with two or fewer of six values counts as a poor binder.
Of ten entries with the parent sequence, four were seen in most replicates (averages 0.34 to 2.37), three in one and three in none, so single entries are noisy.

From the AlphaSeq antibody data of Li et al. 2023 (doi:10.1038/s41467-023-39022-2), copy in the FLAb collection.